Assay results published in article PMC8095719 (Science translational medicine, 2020).

System: ERK1/2 phosphorylation
Details: wild-type and Fmr1^−/y hippocampal slices, CDPPB then DHPG

In the case of `CC[C@]1(c2ccccc2)C2=CNNC2=NC2=C1C(=O)CC(C)(C)C2` [BRD0705, (S)-4-ethyl-7,7-dimethyl-4-phenyl-1,2,4,6,7,8-hexahydro-5H-pyrazolo[3,4-b]quinolin-5-one], the “ERK1/2 phosphorylation after mGluR5 activation” value is reported as “no decrease in ERK phosphorylation”.
